Laboratory results published in patent publication US20070021415A1, “Pharmaceutical composition for the prevention or treatment of cerebral oedemas” (priority 2005, published 2007).
“And” between values parts separate entries of the source, which are not always exact repeats. Identical values can stand only once. Like-named read-outs stand apart in the source and are kept apart here.

Legend:
[1] = tested on: neurological index disrupted by triethyl tin in the rat; details: in vivo, 50 mg/kg/day
[2] = tested on: ambulatory activity disrupted by triethyl tin in the rat; details: in vivo

How did the “behavioural sign (neurological index, in words)” value [1] turn out when `CC1(c2ccccc2)OC(N)=Nc2ccc(Cl)cc21` (stereo not shown) [desethyl-etifoxine, 2-amino-6-chloro-4-methyl-4-phenyl-4H-[3,1]benzoxazine] was run?
Its value is “does not lead to any behavioural sign”.

And the “Neurological index (means ± s.e.m.)” value ([1]; male, Wistar, po)?
The value was 0.

And the “TOTAL […] (mean ± s.e.m.)” value [2]?
Its value is 2923 ± 210 arbitrary unit and 2053 ± 256 arbitrary unit.

What about the “VERTICAL […] (mean ± s.e.m.)” value [2] of the same molecule?
The value was 328 ± 47 arbitrary unit and 295 ± 64 arbitrary unit.

What about the “[…] (mean ± s.e.m.)” value [2] of the same molecule?
Its value is 2156 ± 182 arbitrary unit and 1382 ± 222 arbitrary unit.

And the “effect of TET on the ambulatory activities (in words)” value [2]?
Its value is “suppresses the effect of TET completely”.

What about the “effect on the ambulatory activities (in words)” value ([2]; 50 mg/kg/day) of the same molecule?
The value was “does not lead to any significant effect on the ambulatory activities”.

And the “TOTAL […] (mean ± s.e.m.)” value ([2]; po, 50 mg/kg/day)?
The value was 2725 ± 364 arbitrary unit.

And the “VERTICAL […] (mean ± s.e.m.)” value ([2]; po, 50 mg/kg/day)?
Its value is 327 ± 57 arbitrary unit.

And the “[…] (mean ± s.e.m.)” value ([2]; po, 50 mg/kg/day)?
Its value is 2065 ± 298 arbitrary unit.

What about the “TOTAL […] (mean ± s.e.m.)” value ([2]; male, Wistar, po, 50 mg/kg/day) of the same molecule?
The value was 2887 ± 423 arbitrary unit.

What about the “VERTICAL […] (mean ± s.e.m.)” value ([2]; male, Wistar, po, 50 mg/kg/day) of the same molecule?
Its value is 475 ± 96 arbitrary unit.

What about the “[…] (mean ± s.e.m.)” value ([2]; male, Wistar, po, 50 mg/kg/day) of the same molecule?
The value was 2195 ± 355 arbitrary unit.
